Experimental data taken from patent US9579314B2 (priority 2015, dated 2017).

Protein sequences, listed by entry. Tags and fused reporters are not part of them.
UniProt P20309, whole entry, looked up: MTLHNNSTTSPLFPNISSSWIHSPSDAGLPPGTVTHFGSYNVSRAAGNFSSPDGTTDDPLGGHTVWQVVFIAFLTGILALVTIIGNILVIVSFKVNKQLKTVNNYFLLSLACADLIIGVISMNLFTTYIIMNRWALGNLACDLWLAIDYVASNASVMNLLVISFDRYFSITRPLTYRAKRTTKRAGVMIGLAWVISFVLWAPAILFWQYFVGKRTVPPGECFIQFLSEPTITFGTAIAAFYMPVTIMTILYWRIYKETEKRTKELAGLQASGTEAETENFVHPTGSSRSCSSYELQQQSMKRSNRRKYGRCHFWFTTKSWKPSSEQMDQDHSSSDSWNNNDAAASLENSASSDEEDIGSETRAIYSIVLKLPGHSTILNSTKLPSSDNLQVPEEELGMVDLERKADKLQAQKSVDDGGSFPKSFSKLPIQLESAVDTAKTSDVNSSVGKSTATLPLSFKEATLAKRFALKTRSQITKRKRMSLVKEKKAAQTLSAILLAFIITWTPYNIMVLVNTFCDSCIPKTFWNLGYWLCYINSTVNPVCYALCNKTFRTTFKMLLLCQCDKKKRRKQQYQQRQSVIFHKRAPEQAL
UniProt P07550, whole entry, looked up: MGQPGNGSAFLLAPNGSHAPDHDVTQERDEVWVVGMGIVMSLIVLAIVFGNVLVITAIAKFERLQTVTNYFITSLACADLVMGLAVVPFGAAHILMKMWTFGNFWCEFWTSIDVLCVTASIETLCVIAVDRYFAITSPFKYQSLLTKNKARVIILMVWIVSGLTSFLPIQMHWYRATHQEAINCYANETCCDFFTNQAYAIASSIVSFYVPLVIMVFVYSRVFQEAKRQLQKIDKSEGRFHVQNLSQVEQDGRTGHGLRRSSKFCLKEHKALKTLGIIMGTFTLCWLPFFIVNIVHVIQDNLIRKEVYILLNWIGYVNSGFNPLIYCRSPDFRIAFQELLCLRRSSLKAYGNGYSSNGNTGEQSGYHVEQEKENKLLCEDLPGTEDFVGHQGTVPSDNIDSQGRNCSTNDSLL

Experiments:
Human M3 receptor = Human M3 receptor (Homo sapiens, UniProt P20309); assay: M3 Receptor Radioligand Binding Assay; conditions: read-out: M3 binding affinity, Human M3 receptor membranes, classified in ranges
Human β2 adrenoceptor = Human β2 adrenoceptor (Homo sapiens, UniProt P07550); assay: β2 Adrenoceptor Radioligand Binding Assay; conditions: read-out: B2 binding affinity, Human β2 adrenoceptor membranes, classified in ranges

SMILES	IC50 (Human M3 receptor) [nM]	IC50 (Human β2 adrenoceptor) [nM]
CCN(CCNC(=O)c1ccc(CCNC[C@H](O)c2ccc(O)c3[nH]c(=O)ccc23)cc1)C(=O)COc1cccc([C@](O)(C(=O)OCC2CCN(Cc3ccccc3)CC2)c2ccccc2)c1	> 3	0.3 to 3
CN1CCC(OC(=O)[C@](O)(c2ccccc2)c2cccc(OCCCCCNC[C@H](O)c3ccc(O)c4[nH]c(=O)ccc34)c2)CC1 [Compound 21, (S)-1-methylpiperidin-4-yl 2-hydroxy-2-(3-((5-(((R)-2-hydroxy-2-(8-hydroxy-2-oxo-1,2-dihydroquinolin-5-yl)ethyl)amino)pentyl)oxy)phenyl)-2-phenylacetate]	0.3 to 3	
CN1CCC(OC(=O)[C@@](O)(c2ccccc2)c2cccc(OCCCCCNC[C@H](O)c3ccc(O)c4[nH]c(=O)ccc34)c2)CC1 [Compound 22, (R)-1-methylpiperidin-4-yl 2-hydroxy-2-(3-((5-(((R)-2-hydroxy-2-(8-hydroxy-2-oxo-1,2-dihydroquinolin-5-yl)ethyl)amino)pentyl)oxy)phenyl)-2-phenylacetate]	> 3	
CN1CCC[C@@H](OC(=O)[C@](O)(c2ccccc2)c2cccc(OCCCCCNC[C@H](O)c3ccc(O)c4[nH]c(=O)ccc34)c2)C1 [Compound 25]	0.3 to 3	
CN1CC[C@@H](OC(=O)[C@](O)(c2ccccc2)c2cccc(OCCCCCNC[C@H](O)c3ccc(O)c4[nH]c(=O)ccc34)c2)C1 [Compound 19]	0.3 to 3	
O=C(NCCCOc1cccc([C@](O)(C(=O)O[C@H]2CCN(Cc3ccccc3)C2)c2ccccc2)c1)c1ccc(CNC[C@H](O)c2ccc(O)c3[nH]c(=O)ccc23)cc1 [Compound 164, (S)-1-benzylpyrrolidin-3-yl (S)-2-hydroxy-2-(3-(3-(4-((((R)-2-hydroxy-2-(8-hydroxy-2-oxo-1,2-dihydroquinolin-5-yl)ethyl)amino)methyl)benzamido)propoxy)phenyl)-2-phenylacetate]	0.3 to 3	
CN1CC(OC(=O)[C@](O)(c2ccccc2)c2cccc(OCCCCCNC[C@H](O)c3ccc(O)c4[nH]c(=O)ccc34)c2)C1 [Compound 26, (S)-1-methylazetidin-3-yl 2-hydroxy-2-(3-((5-(((R)-2-hydroxy-2-(8-hydroxy-2-oxo-1,2-dihydroquinolin-5-yl)ethyl)amino)pentyl)oxy)phenyl)-2-phenylacetate]	0.3 to 3	
O=C(NCc1ccc(COc2cccc([C@](O)(C(=O)OC3CCN(Cc4ccccc4)CC3)c3ccccc3)c2)cc1)Nc1ccc(CNC[C@H](O)c2ccc(O)c3[nH]c(=O)ccc23)cc1 [Compound 166, 1-Benzylpiperidin-4-yl (S)-2-hydroxy-2-(3-((4-((3-(4-((((R)-2-hydroxy-2-(8-hydroxy-2-oxo-1,2-dihydroquinolin-5-yl)ethyl)amino)methyl)phenyl)ureido)-methyl)benzyl)oxy)phenyl)-2-phenylacetate]	0.3 to 3	
CN(C)CCOC(=O)[C@@](O)(c1ccccc1)c1cccc(OCCCCCNC[C@H](O)c2ccc(O)c3[nH]c(=O)ccc23)c1 [Compound 18, (R)-2-(dimethylamino)ethyl 2-hydroxy-2-(3-((5-(((R)-2-hydroxy-2-(8-hydroxy-2-oxo-1,2-dihydroquinolin-5-yl)ethyl)amino)pentyl)oxy)phenyl)-2-phenylacetate]	> 3	
COc1cc(NC(=O)NCc2ccc(COc3cccc([C@](O)(C(=O)OC4CCN(Cc5ccccc5)CC4)c4ccccc4)c3)cc2)ccc1CNC[C@H](O)c1ccc(O)c2[nH]c(=O)ccc12 [Compound 167, 1-benzylpiperidin-4-yl (S)-2-hydroxy-2-(3-((4-((3-(4-((((R)-2-hydroxy-2-(8-hydroxy-2-oxo-1,2-dihydroquinolin-5-yl)ethyl)amino)methyl)-3-methoxyphenyl)ureido)methyl)benzyl)oxy)phenyl)-2-phenylacetate]	0.3 to 3	
O=C(O[C@H]1CN2CCC1CC2)C(O)(c1cccc(OCCCCCNC[C@H](O)c2ccc(O)c3[nH]c(=O)ccc23)c1)C1CCCC1 (stereo partly shown)	0.3 to 3	< 0.3
COc1cc(CNC[C@H](O)c2ccc(O)c3[nH]c(=O)ccc23)ccc1NC(=O)NCc1ccc(COc2cccc([C@](O)(C(=O)OC3CCN(Cc4ccccc4)CC3)c3ccccc3)c2)cc1 [Compound 168, 1-benzylpiperidin-4-yl (S)-2-hydroxy-2-(3-((4-((3-(4-((((R)-2-hydroxy-2-(8-hydroxy-2-oxo-1,2-dihydroquinolin-5-yl)ethyl)amino)methyl)-2-methoxyphenyl)ureido)methyl)benzyl)oxy)phenyl)-2-phenylacetate]	0.3 to 3	
CN1CC[C@@H](OC(=O)[C@@](O)(c2ccccc2)c2cccc(OCCCCCNC[C@H](O)c3ccc(O)c4[nH]c(=O)ccc34)c2)C1 [Compound 20, (R)-(R)-1-methylpyrrolidin-3-yl 2-hydroxy-2-(3-((5-(((R)-2-hydroxy-2-(8-hydroxy-2-oxo-1,2-dihydroquinolin-5-yl)ethyl)amino)pentyl)oxy)phenyl)-2-phenylacetate]	> 3	
O=C(NCCCOc1cccc([C@](O)(C(=O)OC[C@@H]2CCN(Cc3ccccc3)C2)c2ccccc2)c1)c1ccc(CNC[C@H](O)c2ccc(O)c3[nH]c(=O)ccc23)cc1 [Compound 159, ((R)-1-benzylpyrrolidin-3-yl)methyl (S)-2-hydroxy-2-(3-(3-(4-((((R)-2-hydroxy-2-(8-hydroxy-2-oxo-1,2-dihydroquinolin-5-yl)ethyl)amino)methyl)benzamido)propoxy)phenyl)-2-phenylacetate]	0.3 to 3	
O=C(NCCCOc1cccc([C@](O)(C(=O)OC2CN(Cc3ccccc3)C2)c2ccccc2)c1)c1ccc(CNC[C@H](O)c2ccc(O)c3[nH]c(=O)ccc23)cc1 [Compound 165, 1-benzylazetidin-3-yl (S)-2-hydroxy-2-(3-(3-(4-((((R)-2-hydroxy-2-(8-hydroxy-2-oxo-1,2-dihydroquinolin-5-yl)ethyl)amino)methyl)benzamido)propoxy)phenyl)-2-phenylacetate]	0.3 to 3	
CN(C)CCOC(=O)[C@](O)(c1ccccc1)c1cccc(OCCCCCNC[C@H](O)c2ccc(O)c3[nH]c(=O)ccc23)c1 [Compound 17, (S)-2-(dimethylamino)ethyl 2-hydroxy-2-(3-((5-(((R)-2-hydroxy-2-(8-hydroxy-2-oxo-1,2-dihydroquinolin-5-yl)ethyl)amino)pentyl)oxy)phenyl)-2-phenylacetate]	> 3	
CN1CC[C@@H](OC(=O)C(O)(c2ccccc2)c2cccc(C(=O)NCCCCNC[C@H](O)c3ccc(O)c4[nH]c(=O)ccc34)c2)C1 (stereo partly drawn) [Compound 49, (R)-1-methylpyrrolidin-3-yl 2-hydroxy-2-(3-((4-(((R)-2-hydroxy-2-(8-hydroxy-2-oxo-1,2-dihydroquinolin-5-yl)ethyl)amino)butyl)carbamoyl)phenyl)-2-phenylacetate diformate]	0.3 to 3	
O=C(NCCCOc1cccc([C@](O)(C(=O)OC[C@H]2CCN(Cc3ccccc3)C2)c2ccccc2)c1)c1ccc(CNC[C@H](O)c2ccc(O)c3[nH]c(=O)ccc23)cc1 [Compound 160, ((S)-1-benzylpyrrolidin-3-yl)methyl (S)-2-hydroxy-2-(3-(3-(4-((((R)-2-hydroxy-2-(8-hydroxy-2-oxo-1,2-dihydroquinolin-5-yl)ethyl)amino)methyl)benzamido)propoxy)phenyl)-2-phenylacetate]	0.3 to 3	
O=C(NCCCOc1cccc([C@](O)(C(=O)O[C@@H]2CCN(Cc3ccccc3)C2)c2ccccc2)c1)c1ccc(CNC[C@H](O)c2ccc(O)c3[nH]c(=O)ccc23)cc1 [Compound 163, (R)-1-benzylpyrrolidin-3-yl (S)-2-hydroxy-2-(3-(3-(4-((((R)-2-hydroxy-2-(8-hydroxy-2-oxo-1,2-dihydroquinolin-5-yl)ethyl)amino)methyl)benzamido)propoxy)phenyl)-2-phenylacetate]	0.3 to 3	
COc1ccc(C(O)(C(=O)O[C@H]2CN3CCC2CC3)c2cccc(OCCCCCNC[C@H](O)c3ccc(O)c4[nH]c(=O)ccc34)c2)cc1 (stereo partly shown)	> 3	> 3
O=C(CCCCNC[C@H](O)c1ccc(O)c2[nH]c(=O)ccc12)Nc1cccc(C(O)(C(=O)O[C@H]2CN3CCC2CC3)c2ccccc2)c1 (stereo partly shown)	0.3 to 3	> 3
O=C(NCCCOc1cccc([C@](O)(C(=O)OC2CCN(Cc3ccccc3)CC2)c2ccccc2)c1)c1ccc(CNC[C@H](O)c2ccc(O)c3[nH]c(=O)ccc23)cc1 [Compound 158, 1-Benzylpiperidin-4-yl (S)-2-hydroxy-2-(3-(3-(4-((((R)-2-hydroxy-2-(8-hydroxy-2-oxo-1,2-dihydroquinolin-5-yl)ethyl)amino)methyl)benzamido)propoxy)phenyl)-2-phenylacetate]	0.3 to 3	
O=C(NCCCCNC[C@H](O)c1ccc(O)c2[nH]c(=O)ccc12)c1cccc(C(O)(C(=O)O[C@H]2CN3CCC2CC3)c2ccccc2)c1 (stereo partly shown)	> 3	< 0.3
